From PubChem BioAssay (NCI)
Only a part is listed here, and it is no random draw. Where a structure was tested more than once in an assay, its records may differ in their call. Calls of active or inactive are those of the source. No stated cut-off is given here; in the data, active means growth inhibition above about 70%; inactive means the rest.

Assay: NCI Yeast Anticancer Drug Screen. Data for the mgt1 strain (AID 153)
Conditions: S. cerevisiae mgt1 mutant growth inhibition, active compounds read high
Procedure: Growth inhibition of yeast strains with defined genetic alterations is measured as a screen for potential anti-cancer activity. Selected strains with alterations in DNA damage repair or cell cycle control were exposed to compounds and growth inhibition was measured relative to vehicle treated controls. The strain used in this assay is mgt1

SMILES | growth inhibition (at 1.2 µM) | growth inhibition (at 3.7 µM) | growth inhibition (at 11.0 µM) | growth inhibition (at 33.0 µM) | growth inhibition (at 100.0 µM)
ClCCN1CCCCC1CCl (stereo not given) | inactive: -2% | inactive: 0% | inactive: -1% | inactive: 4% | inactive: 30%
COc1ccc([N+](=O)[O-])c(C[N+](C)(CCCl)CCCl)c1 | inactive: -53% | inactive: -25% | inactive: -14% | inactive: -41% | inactive: 3%
Cc1ccc([N+](=O)[O-])c(C[N+](C)(CCCl)CCCl)c1 | inactive: -21% | inactive: -23% | inactive: -26% | inactive: 11% | active: 84%
COc1ccc(C[N+](C)(CCCl)CCCl)c([N+](=O)[O-])c1 | inactive: -6% | inactive: -3% | inactive: 14% | inactive: 0% | inactive: 4%
Cc1cccc(C[N+](C)(CCCl)CCCl)c1[N+](=O)[O-] | inactive: -4% | inactive: -2% | inactive: -16% | inactive: 25% | active: 77%
